By UniProt entry, the sequences of proteins in these tests, tags left out. Residues count along the entry.
UniProt P11597, 18-493 limits assumed: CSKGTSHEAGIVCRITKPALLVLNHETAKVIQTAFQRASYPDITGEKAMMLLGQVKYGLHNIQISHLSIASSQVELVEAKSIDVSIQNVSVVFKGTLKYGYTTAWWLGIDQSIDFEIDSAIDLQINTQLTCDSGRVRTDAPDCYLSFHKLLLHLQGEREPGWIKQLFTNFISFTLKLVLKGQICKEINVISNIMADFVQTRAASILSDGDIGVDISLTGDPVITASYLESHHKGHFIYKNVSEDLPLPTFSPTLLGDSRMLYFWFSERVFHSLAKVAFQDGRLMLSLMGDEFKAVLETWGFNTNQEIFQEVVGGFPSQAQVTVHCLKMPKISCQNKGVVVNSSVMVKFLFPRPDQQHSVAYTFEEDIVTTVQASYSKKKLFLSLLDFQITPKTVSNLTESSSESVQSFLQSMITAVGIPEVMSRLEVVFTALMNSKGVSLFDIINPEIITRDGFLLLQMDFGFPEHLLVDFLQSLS

According to patent US9371294B2, “Cycloalkenyl aryl derivatives for CETP inhibitor” (CHONG KUN DANG PHARMACEUTICAL CORP., priority 2011, dated 2016):

Molecular target: cholesteryl ester transfer protein (Homo sapiens, UniProt P11597)
Assay: In vitro test for the ability to inhibit cholesteryl ester transfer
Settings: [3H]-cholesteryl oleate transfer from rHDL-agarose to LDL; human plasma as CETP source; 37° C.; 16-10000 nM, duplicate

Compound: COc1cc(F)c(C(C)C)cc1C1=C(CN2C(=O)O[C@H](c3cc(C(F)(F)F)cc(C(F)(F)F)c3)[C@@H]2C)CN(S(=O)(=O)C(F)(F)F)CC1
- IC50: 196 nM
